# Values quoted from earlier work as cited in patent US20060240051A1, “Eutectic blends containing a water soluble vitamin derivative” (priority 2005, published 2006).
# Columns and labels:
# [1] = normal conditions
# [2] = in water
# [3] = non-ionic surfactant
substance,measurement,setting,value
d-α-tocopheryl polyethylene glycol 1000 succinate [Vitamin E TPGS],stability to hydrolysis,[1],very stable and does not hydrolyze under normal conditions
same,concentration up to which solutions with water are formed,[2],≤ 20 weight %
same,HLB,[3],16-18
